The test has as its target human NaV subtype, like NaV 1.7 (Homo sapiens, UniProt Q15858). Nature of the test: E-VIPR optical membrane potential assay with electrical stimulation. As to conditions: read-out: IC50 Binned Activity Data; one or more sodium channels; assay and NaV subtype not specified for Table 3. The text has this:
Assays for Detecting and Measuring NaV Inhibition Properties of Compound E-VIPR Optical Membrane Potential Assay Method with Electrical Stimulation
Sodium channels are voltage-dependent proteins that can be activated by inducing membrane voltage changes by applying electric fields. The electrical stimulation instrument and methods of use are described in Ion Channel Assay Methods PCT/US01/21652, herein incorporated by reference and are referred to as E-VIPR. The instrument comprises a microtiter plate handler, an optical system for exciting the coumarin dye while simultaneously recording the coumarin and oxonol emissions, a waveform generator, a current- or voltage-controlled amplifier, and a device for inserting electrodes in well. Under integrated computer control, this instrument passes user-programmed electrical stimulus protocols to cells within the wells of the microtiter plate.
24 hours before the assay on E-VIPR, HEK cells expressing human NaV subtype, like NaV 1.7, are seeded in 384-well poly-lysine coated plates at 15,000-20,000 cells per well. Other subtypes are performed in an analogous mode in a cell line expressing the NaV of interest. HEK cells are grown in media (exact composition is specific to each cell type and NaV subtype) supplemented with 10% FBS (Fetal Bovine Serum, qualified; GibcoBRL #16140-071) and 1% Pen-Strep (Penicillin-Streptomycin; GibcoBRL #15140-122). Cells are grown in vented cap flasks, in 90% humidity and 10% CO2, to 100% confluence. They are usually split by trypsinization 1:10 or 1:20, depending on scheduling needs, and grown for 2-3 days before the next split.
100 mg/mL Pluronic F-127 (Sigma #P2443), in dry DMSO
Compound Plates: 384-well round bottom plate, e.g. Corning 384-well Polypropylene Round Bottom #3656
Cell Plates: 384-well tissue culture treated plate, e.g. Greiner #781091-1B
Bath1 buffer. Glucose 10 mM (1.8 g/L), Magnesium Chloride (Anhydrous), 1 mM (0.095 g/L), Calcium Chloride, 2 mM (0.222 g/L), HEPES 10 mM (2.38 g/L), Potassium Chloride, 4.5 mM (0.335 g/L), Sodium Chloride 160 mM (9.35 g/L).
Hexyl Dye Solution: Bath1 Buffer+0.5% β-cyclodextrin (make this prior to use, Sigma #C4767), 8 μM CC2-DMPE+2.5 μM DiSBAC6(3). To make the solution Add volume of 10% Pluronic F127 stock equal to volumes of CC2-DMPE+DiSBAC6(3). The order of preparation is first mix Pluronic and CC2-DMPE, then add DiSBAC6(3) while vortexing, then add Bath1+β-Cyclodextrin.
1) Pre-spot compounds (in neat DMSO) into compound plates. Vehicle control (neat DMSO), the positive control (20 mM DMSO stock tetracaine, 125 μM final in assay) and test compounds are added to each well at 160× desired final concentration in neat DMSO. Final compound plate volume will be 80 μL (80-fold intermediate dilution from 1 μL DMSO spot; 160-fold final dilution after transfer to cell plate). Final DMSO concentration for all wells in assay is 0.625%.
2) Prepare Hexyl Dye Solution.
3) Prepare cell plates. On the day of the assay, medium is aspirated and cells are washed three times with 100 μL of Bath1 Solution, maintaining 25 μL residual volume in each well.
4) Dispense 25 μL per well of Hexyl Dye Solution into cell plates. Incubate for 20-35 minutes at room temp or ambient conditions.
5) Dispense 80 μL per well of Bath1 into compound plates. Acid Yellow-17 (1 mM) is added and Potassium Chloride can be altered from 4.5 to 20 mM depending on the NaV subtype and assay sensitivity.
6) Wash cell plates three times with 100 μL per well of Bath1, leaving 25 of residual volume. Then transfer 25 uL per well from Compound Plates to Cell Plates. Incubate for 20-35 minutes at room temp/ambient condition
7) Read Plate on E-VIPR. Use the current-controlled amplifier to deliver stimulation wave pulses for typically 9 seconds and a scan rate of 400 Hz. A pre-stimulus recording is performed for 0.5 seconds to obtain the un-stimulated intensities baseline. […]

The chains behind the UniProt entries cited, without tags or fusion partners.
UniProt Q15858, whole entry: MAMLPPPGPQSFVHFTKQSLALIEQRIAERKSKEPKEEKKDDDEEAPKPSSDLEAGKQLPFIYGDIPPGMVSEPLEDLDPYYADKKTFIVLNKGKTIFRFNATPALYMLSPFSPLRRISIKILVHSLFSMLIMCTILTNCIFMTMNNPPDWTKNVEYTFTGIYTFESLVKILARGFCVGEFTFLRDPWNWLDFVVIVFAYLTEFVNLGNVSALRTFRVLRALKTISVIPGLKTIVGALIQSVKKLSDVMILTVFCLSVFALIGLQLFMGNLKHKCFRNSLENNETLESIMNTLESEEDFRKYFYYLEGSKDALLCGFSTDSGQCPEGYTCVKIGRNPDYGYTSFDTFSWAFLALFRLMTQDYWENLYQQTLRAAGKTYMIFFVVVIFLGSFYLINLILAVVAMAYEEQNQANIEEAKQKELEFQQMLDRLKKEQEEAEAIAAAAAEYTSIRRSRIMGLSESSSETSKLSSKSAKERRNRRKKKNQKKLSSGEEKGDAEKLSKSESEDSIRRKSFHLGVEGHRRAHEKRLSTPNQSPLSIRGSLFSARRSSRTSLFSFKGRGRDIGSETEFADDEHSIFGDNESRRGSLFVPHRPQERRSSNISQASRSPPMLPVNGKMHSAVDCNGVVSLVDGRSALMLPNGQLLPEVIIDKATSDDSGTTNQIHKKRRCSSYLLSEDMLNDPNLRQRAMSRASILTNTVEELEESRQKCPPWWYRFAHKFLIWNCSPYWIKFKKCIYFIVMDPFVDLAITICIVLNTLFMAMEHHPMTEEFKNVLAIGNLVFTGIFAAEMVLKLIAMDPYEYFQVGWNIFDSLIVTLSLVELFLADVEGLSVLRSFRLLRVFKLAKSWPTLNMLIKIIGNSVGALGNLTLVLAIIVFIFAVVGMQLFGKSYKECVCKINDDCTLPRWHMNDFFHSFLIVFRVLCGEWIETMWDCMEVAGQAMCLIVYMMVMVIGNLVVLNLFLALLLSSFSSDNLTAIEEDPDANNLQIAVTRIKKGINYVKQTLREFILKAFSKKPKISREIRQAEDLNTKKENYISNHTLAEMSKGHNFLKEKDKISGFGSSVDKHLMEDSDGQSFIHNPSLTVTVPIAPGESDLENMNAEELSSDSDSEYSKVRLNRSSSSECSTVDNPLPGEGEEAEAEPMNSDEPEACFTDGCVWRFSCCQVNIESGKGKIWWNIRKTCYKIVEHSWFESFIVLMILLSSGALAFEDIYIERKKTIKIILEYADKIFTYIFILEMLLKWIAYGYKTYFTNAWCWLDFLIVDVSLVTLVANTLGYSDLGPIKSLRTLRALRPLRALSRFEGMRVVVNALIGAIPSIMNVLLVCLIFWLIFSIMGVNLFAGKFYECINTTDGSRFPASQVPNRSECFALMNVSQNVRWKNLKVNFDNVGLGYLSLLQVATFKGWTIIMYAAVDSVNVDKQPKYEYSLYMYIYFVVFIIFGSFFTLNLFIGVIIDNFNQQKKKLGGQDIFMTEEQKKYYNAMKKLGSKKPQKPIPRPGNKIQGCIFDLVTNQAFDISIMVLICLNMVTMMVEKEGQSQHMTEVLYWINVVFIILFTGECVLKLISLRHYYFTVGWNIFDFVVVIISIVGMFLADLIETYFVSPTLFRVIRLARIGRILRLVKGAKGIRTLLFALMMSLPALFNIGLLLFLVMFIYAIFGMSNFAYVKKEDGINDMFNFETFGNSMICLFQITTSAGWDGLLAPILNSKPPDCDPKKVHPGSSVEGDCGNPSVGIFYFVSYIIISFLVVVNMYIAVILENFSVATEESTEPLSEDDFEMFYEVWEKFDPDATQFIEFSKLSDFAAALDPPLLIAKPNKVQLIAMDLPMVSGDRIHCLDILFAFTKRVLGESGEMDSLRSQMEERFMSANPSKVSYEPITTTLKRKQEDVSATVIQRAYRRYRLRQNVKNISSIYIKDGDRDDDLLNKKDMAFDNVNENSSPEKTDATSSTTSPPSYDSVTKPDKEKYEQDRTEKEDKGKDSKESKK

pIC50: −log10 of the molar value.

13 molecules from patent US9403839B2, “Pyran-spirocyclic piperidine amides as modulators of ion channels” (Vertex Pharmaceuticals Incorporated, priority 2012, dated 2016) can be followed below.

On to `CCOC1CC(c2cccc(F)c2)OC2(CCN(C(=O)c3ccc(OC(C)C)c(C)c3)CC2)C1` (stereo not shown), for which the pIC50 (as a rule, the IC50 on a negative log10 scale, so that one unit is a factor of ten) was > 5.70. The figure for `CCOC1CC(c2cccc(F)c2)OC2(CCN(C(=O)c3ccc(C(C)(C)O)c(F)c3)CC2)C1` (stereo not shown) is > 5.70; for `CCOC1CC(c2ccccc2)OC2(CCN(C(=O)c3ccc(C(F)(F)F)cc3OC)CC2)C1` (stereo not shown) it is > 5.70; for `CCOC1CC(c2ccccc2)OC2(CCN(C(=O)c3cccc4c3OCCC4)CC2)C1` (stereo not shown) it is > 5.70. On to `CCOC1CC(c2ccccc2)OC2(CCN(C(=O)c3ccc(OC)cc3F)CC2)C1` (stereo not shown), for which the pIC50 was > 5.70. `Cc1cc(C(=O)N2CCC3(CC2)CC(OC(C)C)CC(c2ccccc2)O3)ccc1OC(C)C` (stereo not shown): the pIC50 is > 5.70.

With `CCOC1CC(c2ccccc2)OC2(CCN(C(=O)c3ccc(S(=O)(=O)C(F)F)cc3)CC2)C1` (stereo not shown), the pIC50 is > 5.70. The figure for `CCOC1CC(c2ccccc2)OC2(CCN(C(=O)c3ccc(Cl)c(F)c3)CC2)C1` (stereo not shown) is 5.30 to 5.70; for `CCOC1CC(c2ccccn2)OC2(CCN(C(=O)c3cccc(F)c3OC)CC2)C1` (stereo not shown) it is < 5.30; for `CCCOC1CC(c2cncc(OC)c2)OC2(CCN(C(=O)c3ccc(OC(C)C)c(C)c3)CC2)C1` (stereo not shown) it is > 5.70.

As to `CCOC1CC(c2ccccc2)OC2(CCN(C(=O)c3ccc(CC)c(OC)c3)CC2)C1` (stereo not shown), the pIC50 was > 5.70. The figure for `CCOC1CC(c2ccc(F)cc2)OC2(CCN(C(=O)c3ccc(S(=O)(=O)C(F)F)cc3)CC2)C1` (stereo not shown) is 5.30 to 5.70; for `CCOC1CC(c2ccccc2)OC2(CCN(C(=O)c3ccc(OCCCO)c(C)c3)CC2)C1` (stereo not shown) it is > 5.70.
